Results as given in US8741174B1, “Reduced weight decontamination formulation for neutralization of chemical and biological warfare agents” (dated 2014).

How the values were obtained:
[1] = Series of tests comparing cationic surfactants in the formulation
[2] = Co-solvent materials for dissolution of sodium percarbonate; conditions: for Approximate Dissolution Time in De-ionized Water: 20% (w/v) sodium percarbonate
[3] = Thermal analysis of solid peroxides (TGA and DSC, dry air); conditions: onset of weight loss as measured by TGA
[4] = Solubility of solid peroxides in water, filtrate titrated for hydrogen peroxide; conditions: for solubility in water: level needed for DF-200: at least 3.5 wt %; for Titrated wt % H2O2: solid for theoretical ~4 wt % H2O2, de-ionized water, stirred 15 min, room temperature, filtered
[5] = cited from earlier work
[6] = Solubility of sodium perborate with a complexing second material (sorbitol, mannitol); conditions: dissolved with secondary material (e.g., sorbitol, mannitol)
[7] = Summary of solid hydrogen peroxide material properties; conditions: at solubility limit of 12%
[8] = Oven stability testing of solid peroxides, cycling 30° C. to 70° C. every 24 hours; conditions: oven 30-70° C. cycle

Compound | Compatible with Seawater [2] | Required Concentration (w/v) to dissolve 20% (w/v) sodium percarbonate [2] | Approximate Dissolution Time in De-ionized Water [2] | Decomposition Temperature [3] | Titrated wt % H2O2 [4] | other results
CCCCCCCCCCCC[N+](C)(C)C.[Cl-] | – | – | – | – | – | efficacy as compared to other cationic surfactants [1]: superior efficacy; foam stability as compared to other cationic surfactants [1]: best foam stability
OC[C@@H](O)[C@@H](O)[C@H](O)[C@@H](O)CO | – | – | – | – | – | effect on precipitation of the potassium tetraborate ([2]; addition of 8% (w/v)): prevents the precipitation
Ammonium Sulfate | No | 12% (w/v) | 10 min | – | – | –
Calcium Peroxide | – | – | – | >300 °C | <0.1 wt % | solubility in water [4]: insoluble
Calcium/Magnesium Peroxide | – | – | – | – | – | Comments: dissolves only at pH [5]: at pH <2
Potassium Citrate (tribasic) | Yes | 20% (w/v) | 12 min | – | – | Comments: dissolution in saltwater ([2]; saltwater): Very slow
Potassium Phosphate (dibasic) | No | 12% (w/v) | 6 min | – | – | –
Potassium Sulfate | No | 12% (w/v) | 10 min | – | – | –
Potassium Superoxide | – | – | – | >300 °C | 4.8 ± 0.1 wt % | –
Potassium Tetraborate Tetrahydrate | Yes | 4% (w/v) | 5 min | – | – | Comments: precipitates from solution after [2]: after ~4 hours
Sodium Perborate Monohydrate | – | – | – | 143 °C | 0.5 ± 0.1 wt % | peroxide concentration that can be achieved [6]: ≥ 3.5 wt %; solubility in water [4]: slightly soluble
Sodium Percarbonate | – | – | – | – | – | hydrogen peroxide concentration yielded at solubility limit [7]: 3.6 % (w/v); retained original peroxide content ([8]; after 120 days, best case): approximately 80%
Sodium Percarbonate [Sodium Percarbonate (Provox)] | – | – | – | 137 °C | 4.3 ± 0.1 wt % | –
Sodium Peroxide | – | – | – | >300 °C | 4.7 ± 0.1 wt % | time after which material degraded rapidly [8]: approximately 25 days
Urea Hydrogen Peroxide | – | – | – | 59 °C | 4.4 ± 0.1 wt % | –
Zinc Peroxide | – | – | – | 209 °C | <0.1 wt % | solubility in water [4]: insoluble
